Data from paper PMC9920749, “In Vitro and In Silico Studies of Neolignans from Magnolia grandiflora L. Seeds against Human Cannabinoids and Opioid Receptors” (Molecules, 2023).

Chains of the proteins cited; added tags and fusions are not shown.
UniProt P21554, whole entry: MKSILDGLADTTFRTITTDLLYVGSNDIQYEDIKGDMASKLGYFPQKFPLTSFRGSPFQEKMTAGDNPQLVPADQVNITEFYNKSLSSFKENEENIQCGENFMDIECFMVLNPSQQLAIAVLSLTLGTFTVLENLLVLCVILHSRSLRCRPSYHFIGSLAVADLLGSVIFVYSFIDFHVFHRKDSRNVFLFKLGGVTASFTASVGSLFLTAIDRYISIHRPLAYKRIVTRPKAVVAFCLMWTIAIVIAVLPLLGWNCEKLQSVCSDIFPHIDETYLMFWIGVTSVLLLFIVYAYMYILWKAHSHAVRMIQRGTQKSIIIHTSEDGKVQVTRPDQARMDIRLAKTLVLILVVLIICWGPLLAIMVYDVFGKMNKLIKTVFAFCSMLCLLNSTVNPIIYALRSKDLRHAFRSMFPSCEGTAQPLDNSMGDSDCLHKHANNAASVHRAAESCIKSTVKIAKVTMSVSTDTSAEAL

Target: T1, CB1R (Homo sapiens, UniProt P21554)
T1 construct: expressed in transfected cells; host or cells: HEK293 (ATCC), stably transfected; membrane preparation
Test: Competitive radioligand binding assay, [3H]-CP55,940, HEK293 membranes
Settings: 10 μM purified compounds and 2 + 3
Description: HEK293 cells stably transfected with δ, κ, and μ opioid subtypes were a generous gift from Roth Laboratories (University of North Carolina at Chapel Hill, NC, USA). Opioid cells were maintained as previously described. Membranes were made by washing the cells with cold PBS. The cells were then scraped in cold 50 mM Tris-HCl, pH 7.4 buffer. The solution was centrifuged at 5200× g for 10 min at 4 °C. Next, the supernatant was discarded, and the pellet was washed with more Tris-HCl buffer, homogenized via Sonic Dismembrator (Fisher Scientific, Pittsburgh, PA, USA) and then centrifuged at 24,000× g for 40 min at 4 °C. […] The total membrane protein concentration was measured using a Pierce BCA Protein Assay Kit (Thermo Scientific, Rockford, IL, USA) as per the manufacturer’s protocol.
Cannabinoid and opioid competitive radioligand binding assays were performed as previously described. […] Percent displacements were evaluated for all the cannabinoid and opioid subtypes with a triplicate of a fixed concentration (10 µg/mL for extracts and fractions, 10 μM for purified compounds). […] Radiodetection was measured with 50 µL (cannabinoid) or 25 µL (opioid) MicroScint^TM-20 on a TopCount NXT HTS Microplate Scintillation Counter (PerkinElmer, Waltham, MA, USA). The IC50 and Ki values were calculated by a non-linear curve fit model using GraphPad Prizm 5.0 software (GraphPad Software Inc., San Diego, CA, USA). […]

C=CCc1ccc(O)c(-c2ccc(OC)c(CC=C)c2)c1 [Compound 1, 4-O-methylhonokiol]
Cannabinoid Receptors (% Displacement) CB1: 91.3%
